# USRE40033E1, “Process for preparing 2-methyl-thieno-benzodiazepine” (Eli Lilly and Company, priority 1991, dated 2008)
# Assay: in vivo
# Conditions: rat
smiles,measurement,value
Cc1cc2c(s1)Nc1ccccc1N=C2N1CCN(C)CC1,ED50,39.4 mg/kg
